Earlier results as cited in patent US20210100869A1, “COMPOSITIONS AND METHODS OF USING SAME FOR TREATING AMYOTROPHIC LATERAL SCLEROSIS (ALS)” (Immunity Pharma Ltd., priority 2018, published 2021).

Tested on: ALS patients
Conditions: estimated moderate effect; cited from earlier work

Nc1nc2ccc(OC(F)(F)F)cc2s1 [riluzole]
Extension in patient survival: three months extension in patient survival
